The subject of one series is KPL-4 cells. Type of series: in vivo, nude mouse. The source says: The calculation expression is as shown below.
An untreated group was established as a control group.

Series [1] deals with colorectal cancer CTG-0401 tumor low or moderately expressing HER2. Nature of the series: Antitumor test (8), patient-derived colorectal cancer CTG-0401 in nude mice. The conditions noted are these: 10 mg/kg intravenously on Day 0; HER2 score 1+ or 2+; FIG. 10. It is filed as in vivo, nude mouse. The protocol: This test was carried out by the following procedure. Evaluation Examples 11 to 13 were also carried out by this procedure.
(§1) Mouse: 5- to 8-week-old female nude mice (Harlan Laboratories Ltd.) were subjected to the experiment.
(§2) The calculation expression is as shown below. Tumor volume(mm^3)=0.52×Major axis (mm)×[Minor axis (mm)]^2
Tumor (CTG-0401; Champions Oncology Inc.) excised from a colorectal cancer patient and maintained at several passages by transplantation to female nude mice was used in this test. This tumor low or moderately expressed HER2 (which received a score of 1+ or 2+ in immunohistochemical staining).
(§3) A tumor section of the solid tumor was subcutaneously transplanted to the left side of the body of each female nude mouse, and the mice were randomly grouped when the tumor volume reached 100 to 300 mm^3. The date of grouping was defined as Day 0. […] An acetate buffer solution administration group was established as a control group.

Series [2] relates to Human breast cancer line JIMT-1 cells. As to conditions: mouse, in vivo.
Series [3] has as its system bile duct cancer CTG-0927 tumor highly expressing HER2. Nature of the series: Antitumor test (10), patient-derived bile duct cancer CTG-0927 in nude mice. Type of series: in vivo, nude mouse. As to conditions: 10 mg/kg intravenously on Day 0; HER2 score 3+; FIG. 12.
Source text: as §1, §2
Tumor (CTG-0927; Champions Oncology Inc.) excised from a bile duct cancer patient and maintained at several passages by transplantation to female nude mice was used in this test. This tumor highly expressed HER2 (which received a score of 3+ in immunohistochemical staining).
as §3

In series [4] the test system is non-small cell lung cancer CTG-0860 tumor moderately expressing HER2. Briefly: Antitumor test (9), patient-derived non-small cell lung cancer CTG-0860 in nude mice. It is filed as in vivo, nude mouse. As to conditions: 10 mg/kg intravenously on Day 0; HER2 score 2+; FIG. 11.
Source text: as §1, §2
Tumor (CTG-0860; Champions Oncology Inc.) excised from a non-small cell lung cancer patient and maintained at several passages by transplantation to female nude mice was used in this test. This tumor moderately expressed HER2 (which received a score of 2+ in immunohistochemical staining).
as §3

Series [5] relates to esophageal cancer CTG-0137 tumor highly expressing HER2. Nature of the series: Antitumor test (11), patient-derived esophageal cancer CTG-0137 in nude mice. It is filed as in vivo, nude mouse. As to conditions: 10 mg/kg intravenously on Day 0; HER2 score 3+; FIG. 13.
Source text: as §1, §2
Tumor (CTG-0137; Champions Oncology Inc.) excised from an esophageal cancer patient and maintained at several passages by transplantation to female nude mice was used in this test. This tumor highly expressed HER2 (which received a score of 3+ in immunohistochemical staining).
as §3

The subject of series [6] is breast cancer ST225 tumor moderately expressing HER2. Briefly: Antitumor test (6), patient-derived breast cancer ST225 in nude mice. It is filed as in vivo, nude mouse. The conditions noted are these: 10 mg/kg intravenously on Day 0; HER2 score 2+; FIG. 8. The protocol:
This test was carried out by the following method.
as §2
Tumor (ST225; South Texas Accelerated Research Therapeutics (START)) excised from a breast cancer patient and maintained at several passages by transplantation to female nude mice was used in this test. This tumor moderately expressed HER2 (which received a score of 2+ in immunohistochemical staining).
(§4) A tumor section of the solid tumor was subcutaneously transplanted to the side of the body of each female nude mouse, and the mice were randomly grouped when the tumor volume reached 100 to 300 mm^3. The date of grouping was defined as Day 0. […] An acetate buffer solution administration group was established as a control group.

Series [7] concerns breast cancer ST910 tumor low expressing HER2. Briefly: Antitumor test (7), patient-derived breast cancer ST910 in nude mice. Type of series: in vivo, nude mouse. The conditions noted are these: 10 mg/kg intravenously on Day 0; HER2 score 1+; FIG. 9.
Source text: as §2
Tumor (ST910; START) excised from a breast cancer patient and maintained at several passages by transplantation to female nude mice was used in this test. This tumor low expressed HER2 (which received a score of 1+ in immunohistochemical staining).
as §4

Consider “trastuzumab: humanized anti-HER2 antibody; heavy chain residues 1 to 449 of SEQ ID NO: 1, light chain residues 1 to 214 of SEQ ID NO: 2”, for which, in the series with KPL-4 cells (10 mg/kg intravenously at Days 15 and 22, FIG. 3), the “tumor growth inhibitory effect (tumor volume), KPL-4” value was “inhibited tumor growth”. Also, the “notable signs such as weight loss of mice, KPL-4 test” value with KPL-4 cells (mouse, in vivo) is recorded as “free from notable signs such as weight loss”. Further, the “growth of the colorectal cancer CTG-0401 tumor (tumor volume)” value in series [1] is given as “did not inhibit the growth”. Also, in series [2], the “weight loss of the mice, JIMT-1 test” value was “free from weight loss of the mice”. Also, in series [3], the “growth of the bile duct cancer CTG-0927 tumor (tumor volume)” value is given as “did not inhibit the growth”. Also, the “growth of the non-small cell lung cancer CTG-0860 tumor (tumor volume)” value in series [4] was “did not inhibit the growth”. Moreover, the “growth of the esophageal cancer CTG-0137 tumor (tumor volume)” value in series [5] was “did not inhibit the growth”. Further, in series [6], the “growth of the breast cancer ST225 tumor (tumor volume)” value is “did not inhibit the growth”. Also, the “growth of the breast cancer ST910 tumor (tumor volume)” value in series [7] is listed as “did not inhibit the growth”.

Values taken from US11584800B2, “Method of treating cancer comprising administration of anti-HER2 antibody-drug conjugate” (DAIICHI SANKYO COMPANY, LIMITED, priority 2014, dated 2023).
